From ChEMBL document CHEMBL5029189, “Development of a 1,2,4-Triazole-Based Lead Tankyrase Inhibitor: Part II” (J Med Chem, 2021) come the findings set out here.

Molecules are shown by their SMILES.

Data set [1] is described as follows: Stability in mouse plasma assessed as half life. Type of data set: ADME, cell-free.
In data set [2] the test system is RKO. Briefly: cells. Particulars: Homo sapiens, 120 h.

`CCOc1ccc(-c2nnc([C@H]3C[C@H](NC(=O)c4ccccn4)C3)n2-c2ccccc2F)nc1`: the half-life (usually the time in which the quantity being followed falls by half) in data set [1] was > 2 h. The GI50 (in general, the concentration giving 50% growth inhibition) in data set [2] is > 10 µM.
